Measured values taken from patent US20150246938A1, “NOVEL OLEFIN DERIVATIVE” (SHIONOGI & CO., LTD., priority 2011, published 2015).

By UniProt entry, the sequences of proteins in these tests, tags left out. Residues count along the entry.
UniProt O00763, 27-2458 limits assumed: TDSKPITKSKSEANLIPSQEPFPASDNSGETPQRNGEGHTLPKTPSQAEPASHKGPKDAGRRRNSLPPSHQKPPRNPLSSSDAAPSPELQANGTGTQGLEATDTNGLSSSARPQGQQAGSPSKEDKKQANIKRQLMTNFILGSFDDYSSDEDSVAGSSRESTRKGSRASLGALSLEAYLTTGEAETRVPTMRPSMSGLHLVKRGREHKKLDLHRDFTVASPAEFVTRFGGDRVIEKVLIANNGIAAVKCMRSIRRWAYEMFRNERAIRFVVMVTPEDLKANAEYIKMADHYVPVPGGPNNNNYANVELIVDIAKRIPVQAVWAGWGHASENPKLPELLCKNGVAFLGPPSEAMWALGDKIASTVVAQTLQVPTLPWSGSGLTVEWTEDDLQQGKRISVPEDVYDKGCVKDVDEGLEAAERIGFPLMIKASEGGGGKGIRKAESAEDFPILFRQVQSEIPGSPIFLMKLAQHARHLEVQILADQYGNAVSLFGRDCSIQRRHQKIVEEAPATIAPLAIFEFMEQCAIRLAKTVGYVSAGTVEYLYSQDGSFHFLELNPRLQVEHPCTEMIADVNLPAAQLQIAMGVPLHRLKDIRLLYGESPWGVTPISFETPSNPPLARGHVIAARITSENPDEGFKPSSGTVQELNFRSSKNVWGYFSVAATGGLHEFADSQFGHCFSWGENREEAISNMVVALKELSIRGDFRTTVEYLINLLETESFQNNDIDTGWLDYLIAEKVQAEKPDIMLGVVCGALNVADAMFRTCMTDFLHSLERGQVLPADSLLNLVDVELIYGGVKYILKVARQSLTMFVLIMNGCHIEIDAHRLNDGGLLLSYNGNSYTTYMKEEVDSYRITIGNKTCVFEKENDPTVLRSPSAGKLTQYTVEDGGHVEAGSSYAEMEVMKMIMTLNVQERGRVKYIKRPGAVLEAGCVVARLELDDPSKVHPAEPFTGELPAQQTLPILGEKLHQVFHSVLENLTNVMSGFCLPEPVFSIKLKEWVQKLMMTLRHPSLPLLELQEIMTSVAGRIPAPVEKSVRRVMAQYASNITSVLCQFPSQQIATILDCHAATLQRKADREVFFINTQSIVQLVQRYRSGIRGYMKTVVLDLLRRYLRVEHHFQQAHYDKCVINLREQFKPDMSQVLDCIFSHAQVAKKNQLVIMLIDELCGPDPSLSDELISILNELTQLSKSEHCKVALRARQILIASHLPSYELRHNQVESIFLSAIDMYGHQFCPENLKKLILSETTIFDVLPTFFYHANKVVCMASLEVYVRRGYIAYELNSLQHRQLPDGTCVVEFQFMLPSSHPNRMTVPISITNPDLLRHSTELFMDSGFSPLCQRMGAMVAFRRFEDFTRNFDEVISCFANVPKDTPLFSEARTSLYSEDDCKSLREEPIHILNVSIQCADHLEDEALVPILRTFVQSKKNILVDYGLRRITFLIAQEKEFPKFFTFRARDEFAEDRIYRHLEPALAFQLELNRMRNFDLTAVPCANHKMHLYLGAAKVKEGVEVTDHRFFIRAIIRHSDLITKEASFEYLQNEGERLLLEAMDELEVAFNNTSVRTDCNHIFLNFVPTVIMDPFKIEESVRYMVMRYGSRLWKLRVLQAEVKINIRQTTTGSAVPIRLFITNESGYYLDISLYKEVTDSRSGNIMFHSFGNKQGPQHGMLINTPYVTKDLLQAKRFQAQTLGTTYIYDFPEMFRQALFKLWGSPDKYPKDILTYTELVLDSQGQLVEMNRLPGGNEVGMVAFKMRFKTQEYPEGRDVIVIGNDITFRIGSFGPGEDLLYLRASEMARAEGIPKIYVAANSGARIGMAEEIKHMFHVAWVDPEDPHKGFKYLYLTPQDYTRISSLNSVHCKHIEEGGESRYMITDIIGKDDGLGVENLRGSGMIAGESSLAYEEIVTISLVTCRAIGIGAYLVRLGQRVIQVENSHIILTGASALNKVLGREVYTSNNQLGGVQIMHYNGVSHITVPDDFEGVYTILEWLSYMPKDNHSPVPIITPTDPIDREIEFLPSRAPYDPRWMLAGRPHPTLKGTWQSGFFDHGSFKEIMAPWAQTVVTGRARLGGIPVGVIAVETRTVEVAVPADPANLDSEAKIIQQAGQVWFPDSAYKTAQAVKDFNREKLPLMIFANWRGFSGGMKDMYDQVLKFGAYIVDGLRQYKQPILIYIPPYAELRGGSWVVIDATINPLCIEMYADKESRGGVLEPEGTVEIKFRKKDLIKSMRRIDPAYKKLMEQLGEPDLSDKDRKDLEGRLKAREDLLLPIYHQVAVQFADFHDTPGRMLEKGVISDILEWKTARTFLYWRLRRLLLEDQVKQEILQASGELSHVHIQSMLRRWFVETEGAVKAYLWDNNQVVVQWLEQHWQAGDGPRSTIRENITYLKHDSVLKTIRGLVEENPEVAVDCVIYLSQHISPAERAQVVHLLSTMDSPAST

Biological target: recombinant human ACC2 (Homo sapiens, UniProt O00763)
Test: Measurement of inhibitory activity on human ACC2 (MALDI-TOF MS, acetyl CoA to malonyl CoA conversion)
Format: biochemical
Settings: inhibition activity on human ACC2, Table 79

CC(=O)N[C@@H](C)/C=C/c1ccc(Oc2ccc(OCC3CC3)cc2Cl)cc1F
IC50: 7 nM
